# Reference: patent publication US9321756B2, “Azole compounds as PIM inhibitors” (priority 2011, dated 2016)
# By UniProt entry, the sequences of proteins in these tests, tags left out.
# UniProt P11309, whole entry: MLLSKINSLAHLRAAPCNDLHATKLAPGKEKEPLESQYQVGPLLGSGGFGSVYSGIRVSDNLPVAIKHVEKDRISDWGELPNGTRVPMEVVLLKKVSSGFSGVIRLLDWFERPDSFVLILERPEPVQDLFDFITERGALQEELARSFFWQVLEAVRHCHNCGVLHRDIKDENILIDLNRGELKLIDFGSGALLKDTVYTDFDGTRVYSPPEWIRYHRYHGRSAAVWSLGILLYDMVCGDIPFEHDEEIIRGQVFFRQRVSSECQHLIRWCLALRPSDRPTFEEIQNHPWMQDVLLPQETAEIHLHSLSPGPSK
# UniProt Q9P1W9, whole entry: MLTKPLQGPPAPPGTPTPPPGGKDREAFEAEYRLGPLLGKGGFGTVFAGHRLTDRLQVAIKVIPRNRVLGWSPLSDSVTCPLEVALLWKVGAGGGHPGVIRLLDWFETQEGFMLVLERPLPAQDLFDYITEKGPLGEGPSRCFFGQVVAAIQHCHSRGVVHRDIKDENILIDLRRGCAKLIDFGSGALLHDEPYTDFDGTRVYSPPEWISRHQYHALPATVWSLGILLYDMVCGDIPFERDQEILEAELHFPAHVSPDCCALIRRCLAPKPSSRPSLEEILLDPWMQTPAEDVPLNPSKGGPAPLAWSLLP
# Assays:
# [1] = target: full length recombinant Pim-1 (Homo sapiens (Human), UniProt P11309); test: Pim enzyme assay (HTRF, phosphorylation of biotinylated-BAD (S112) peptide), Pim-1; assay type: biochemical; details: read-out: Pim_1_IC50; Pim-1 enzyme assay
# [2] = target: full length recombinant Pim-2 (Homo sapiens (Human), UniProt Q9P1W9); test: Pim enzyme assay (HTRF, phosphorylation of biotinylated-BAD (S112) peptide), Pim-2; assay type: biochemical; details: read-out: Pim2_IC50; Pim-2 enzyme assay
# [3] = target: full length recombinant Pim-3 (Homo sapiens (Human), UniProt Q86V86); test: Pim enzyme assay (HTRF, phosphorylation of biotinylated-BAD (S112) peptide), Pim-3; assay type: biochemical; details: read-out: Pim3 IC50; Pim-3 enzyme assay
# [4] = target: Pim-1 stably transfected U2OS human osteogenic sarcoma line (Homo sapiens, UniProt P11309); test: Pim cell assay U2OS (phospho-BAD normalized against total BAD), Pim-1 transfected; assay type: cell-based; details: read-out: U2OS Pim1_Cell_IC50, U2OS cells
# [5] = target: Pim-2 stably transfected U2OS human osteogenic sarcoma line (Homo sapiens, UniProt Q9P1W9); test: Pim cell assay U2OS (phospho-BAD normalized against total BAD), Pim-2 transfected; assay type: cell-based; details: read-out: U2OS Pim2_Cell_IC50, U2OS cells
smiles,measurement,setting,value
Nc1nnc(-c2ccc3[nH]cc(-c4cccc(N5CCC[C@H](N)C5)n4)c3c2)s1,IC50,[1],1.79 nM
same,IC50,[2],3.7 nM
same,IC50,[3],0.307 nM
same,IC50,[4],3090 nM
same,IC50,[5],19600 nM
